Screening data as filed in PubChem.
A selection: hits, their analogues and other compounds. The true share with any hit is near 1.2%.
Rce1 inh: inhibitors of yeast Ras-converting enzyme | yeast membranes, quenched prenylated peptide cleavage fluorescence | calls only | Q03530 | 0.27% of 290,000 active;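 active = fall in fluorescence gain of 50% or more versus controls, with final raw signal at or below 3038400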;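 also: plate controls were neutral control wells for no effect and wells lacking membranes for full effect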
Arr AP2 block: inhibitors of human beta-arrestin and AP2 interaction. FITC-arrestin peptide / GST-AP2 beads, flow cytometry; AP2 beta2 appendage carries R879A mutation. inhibition, % at 10 µM. 0.31% of 340,000 active. AID 504490;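 active = inhibition above a set limit, near 3 SD of compounds lacking own fluorescence, cut at about 54% in these data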;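 also: plate controls were DMSO wells for no effect and 5 µM unlabelled arrestin peptide for full effect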
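Material – GST-tagged AP2 beta2-adaptin appendage (R879A) on 4 µm glutathione beads · Probe or stimulus – fluorescein-tagged arrestin peptide at 50 nM final · Timing – 12 min plus 1 h, RT · Detection – bead flow cytometry, FITC channel · Read-out basis – inhibition as reduced fluorescein signal on beads, percent · Medium – PBS plus Tween 20 (0.05%) and BSA (0.1%)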
UUG fidelity: alters start codon recognition fidelity in yeast; AID 602363; activity score, % at 18.7 µM; 350,000 tested, 0.13% active; S. cerevisiae UUG-firefly luciferase reporter, luminescence/redox ratio;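 active means replicate mean at a twofold rise or more, about +100% in these data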;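 further: firefly luciferase made from a UUG start codon reports start codon fidelity; reporter light over untreated wells divided by growth signal over untreated wells; some hits fall short of that in this replicate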
Tb MetRS inh: blocks T. brucei methionyl-tRNA synthetase activity. purified T. brucei MetRS, ATP depletion, Kinase-Glo luminescence. inhibition, % at 11.9 µM. 0.4% of 360,000 active;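 active = inhibition above a per-plate cutoff of the control wells' mean inhibition plus 3 SD, cut at about 5.5% in these data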;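 also: 0% = DMSO wells median and 100% = median of wells with control inhibitor compound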
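Material – parasite MetRS enzyme · Medium – HEPES-MgCl2-KCl buffer plus DTT, spermine, BSA, pyrophosphatase · Reagent – ATP, methionine and E. coli bulk tRNA substrates · Times – 15 min enzyme-compound preincubation, 2 h reaction, 10 min detection, 25 °C · Measured by – luminescence of leftover ATP · Evaluation – percent inhibition relative to median high and low control wells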
Pemphigus Ab inh: blocks pemphigus antibody binding to human desmoglein-3 | DSG3-coupled beads, scFv-anti-DSG3-GFP binding, flow cytometry; stronger effect = lower value | binding (percent of control), % at 10 µM | 0.48% of 310,000 active;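 active = binding more than 3 SD below its plate's average and above zero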;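 also: hits lower antibody fragment binding to DSG3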
The depositor's hits bear a star; i = inactive; . = not tested or not shown; + = active, no number.

SMILES	Rce1 inh	Arr AP2 block	UUG fidelity	Tb MetRS inh	Pemphigus Ab inh
C[C@@H]1CN([C@@H](C)CO)C(=O)Cc2cc(NC(=O)CCCCCC(=O)Nc3ccccc3N)ccc2O[C@H]1CN(C)S(C)(=O)=O	.	.	-5.5	.	.
c1ccc(CSc2ccc(-c3ccc4c(c3)OCO4)nn2)cc1	i	8.3	-9.6	-1.5	1.2*
CCCCCCCCNC(C)C(O)c1ccc(SC(C)C)cc1 (stereo not given)	+	12.4	11.6	-0.6	134.2
Cc1ccc(OCCCN2C(=O)C(=O)c3cccc(C)c32)cc1	i	2.9	-17.4	0.3	98.9
Cc1ccc(OCCN2C(=O)C(=O)c3cc(C)ccc32)cc1	+	22.4	0.5	0.2	99.9
N/C(Cc1ccc([N+](=O)[O-])cc1)=N\OC(=O)c1ccc2ccccc2c1	+	-0.2	.	-0.5	108.1
COc1ccc(CN2C[C@H](O)COC[C@H]3O[C@H](CC(=O)NCc4ccccc4Cl)CC[C@@H]32)cc1	.	.	-19.8	.	.
CC(C)C#Cc1ccc2c(c1)O[C@H](CN(C)CC1CCOCC1)[C@H](C)CN([C@@H](C)CO)S2(=O)=O	.	.	0.9	.	.
COc1ccc(-c2noc(CCC(=O)NC3CCCCCC3)n2)cc1OC	.	.	-11.9	-0.3	82.5*
COc1cc(-c2noc(CCC(=O)NC3CCCC3)n2)cc(OC)c1OC	i	-0.2	-12.4	-0.5	.
CC(C)C(=O)Nc1ccc2c(c1)C(=O)N(C)[C@H]1CC[C@H](CC(=O)N[C@@H](C)c3ccccc3)O[C@H]1CO2	.	.	12.4	.	.
CC(C)CNC(=O)COc1cccc(C(=O)NCc2ccccc2)c1	+	1.9	.	-1.0	84.0

A few values from the entries so far.
Value of `Cc1ccc(OCCN2C(=O)C(=O)c3cc(C)ccc32)cc1` under Arr AP2 block: 22.4
Value of `CC(C)CNC(=O)COc1cccc(C(=O)NCc2ccccc2)c1` under Tb MetRS inh: -1.0

The results go on:
SMILES	Rce1 inh	Arr AP2 block	UUG fidelity	Tb MetRS inh	Pemphigus Ab inh
CCNC(=O)COc1cccc(C(=O)NCc2ccccc2)c1	i	0.4	.	1.0	100.8
COc1ccc(-n2c(SCc3ccc([N+](=O)[O-])cc3)nnc2-c2ccc(C)cc2)cc1	+	43.3	.	-0.9	132.7
COc1ccc(-n2c(Cc3ccccc3)nnc2SCc2ccc([N+](=O)[O-])cc2)cc1	.	-8.2	.	-0.5	107.3
CCN(CC)C(=O)CSC1=Nc2ccccc2C2=NC(c3ccccc3)C(=O)N12 (stereo not given)	i	-0.1	1.7	0.0	.
NC(=O)CSC1=Nc2ccccc2C2=NC(c3ccccc3)C(=O)N12 (stereo not given)	+	1.6	.	-1.0	87.8
C[C@H](CO)N1C[C@H](C)[C@@H](CN(C)C(=O)Nc2ccc3c(c2)OCO3)Oc2ccc(NC(=O)Cn3cnnn3)cc2CC1=O	.	.	1.2	.	.
Cc1cc(C(=O)Nc2ccc3c(c2)C(=O)N(C)[C@H]2CC[C@@H](CC(=O)N[C@H](C)c4ccccc4)O[C@@H]2CO3)no1	.	.	13.6	.	.
C[C@@H]1CN([C@H](C)CO)C(=O)c2cccc(NS(=O)(=O)c3ccccc3)c2O[C@H]1CN(C)S(=O)(=O)c1cn(C)cn1	.	.	-5.4	.	.
CC(C)CC#Cc1ccc2c(c1)O[C@H](CN(C)Cc1ccccc1F)[C@H](C)CN([C@@H](C)CO)S2(=O)=O	.	.	14.4	.	.
COCCN(C(=O)CCC(=O)Nc1cccnc1)C(C(=O)NC1CCCCC1)c1ccccc1 (stereo not given)	i	-8.5	-10.7	-0.9	82.2*
O=C(CCC(=O)N(c1ccccc1)C(C(=O)NC1CCCC1)c1ccncc1)Nc1cccnc1 (stereo not given)	i	-4.6	-2.7	-0.6	96.9
CNC[C@H]1Oc2c(N)cccc2C(=O)N([C@@H](C)CO)C[C@@H]1C	.	.	0.3	.	.
COc1ccc(CCn2c(N)c(C(=O)NCc3ccco3)c3nc4ccccc4nc32)cc1	i	12.6	.	0.1	96.3
COc1ccc(-n2c(N)c(C(=O)NCc3ccco3)c3nc4ccccc4nc32)c(OC)c1	+	4.6	-1.5	0.2	107.0
COc1cc(N=c2ssnc2Cl)c(OC)cc1Cl	i	-2.6	-27.4	-0.2	84.8*
Cc1cc(Cl)ccc1N=c1ssnc1Cl	i	3.4	-40.2	-1.1	52.9*
C[C@@H]1CN([C@@H](C)CO)C(=O)c2cc(NC(=O)Nc3ccccc3)ccc2O[C@@H]1CN(C)Cc1ccc(-c2ccccc2)cc1	.	.	6.3	.	.
Cc1ccccc1NC(=O)Cn1nc(-c2ccccc2)nc1-c1ccccc1	i	3.5	-9.0	-1.4	-17.2*
COc1ccc(C(=O)Nc2ccc(NC(=O)C3CC3)cn2)cc1	i	-51.8	4.4	0.1	104.6
COc1ccc(C(=O)Nc2ccc(NC(=O)c3cnccn3)cn2)cc1	i	20.8	-6.1	-0.4	71.7*
Cc1ccc(NC(=O)c2cccnc2)cc1C	i	-3.9	-10.9	-0.5	15.5*
O=C(Nc1cccc(NC(=O)c2cccnc2)c1)c1cccnc1	i	-3.8	-3.0	-0.4	102.5
COCC(=O)N1C[C@H](C)[C@H](OC)CN(C)C(=O)c2cc(NC(=O)c3ccccc3)ccc2OC[C@@H]1C	.	.	3.3	.	.
COc1cc(NC(=O)C2CC(c3ccc(Cl)cc3)=NO2)cc(OC)c1OC (stereo not given)	.	-5.4	-3.8	0.0	63.0*

For convenience, part of the list above:
SMILES	Rce1 inh	Arr AP2 block	UUG fidelity	Tb MetRS inh	Pemphigus Ab inh
C[C@@H]1CN([C@@H](C)CO)C(=O)Cc2cc(NC(=O)CCCCCC(=O)Nc3ccccc3N)ccc2O[C@H]1CN(C)S(C)(=O)=O	.	.	-5.5	.	.
c1ccc(CSc2ccc(-c3ccc4c(c3)OCO4)nn2)cc1	i	8.3	-9.6	-1.5	1.2*
CCCCCCCCNC(C)C(O)c1ccc(SC(C)C)cc1 (stereo not given)	+	12.4	11.6	-0.6	134.2
Cc1ccc(OCCCN2C(=O)C(=O)c3cccc(C)c32)cc1	i	2.9	-17.4	0.3	98.9

(further entries)
SMILES	Rce1 inh	Arr AP2 block	UUG fidelity	Tb MetRS inh	Pemphigus Ab inh
COc1ccc(NC(=O)C2CC(c3ccc(Cl)cc3)=NO2)cc1OC (stereo not given)	.	12.5	-14.5	0.4	90.0
C[C@H](CO)N1C[C@H](C)[C@H](CN(C)C(=O)c2ccccc2)OCCCC[C@H](C)Oc2ccc(NC(=O)Nc3cccc4ccccc34)cc2C1=O	.	.	-17.9	.	.
COc1ccccc1CNc1nc(-c2cc(C)n(C)c2C)cs1	.	2.4	.	0.5	96.2
COCCNc1nc(-c2cc(C)n(CCc3ccc(OC)cc3)c2C)cs1	i	-4.3	-11.0	-0.1	88.9*
CCOC(=O)c1c(-c2ccccc2)c[nH]c1C	.	1.4	-12.0	-0.5	70.0*
COc1ccc(N2CCN(Cc3nc4scc(-c5ccccc5)c4c(=O)[nH]3)CC2)cc1	i	8.0	.	-1.8	48.5*
Cc1cc(C(=O)Nc2cccc3c2O[C@@H](CN(C)Cc2ccncc2)[C@H](C)CN([C@@H](C)CO)C3=O)n(C)n1	.	.	-8.3	.	.
NNc1nc2c(-c3ccc(Cl)cc3)nnn2c2ccccc12	i	-11.5	-5.4	-0.7	68.2*
